Measurements as given in PubChem BioAssay AID1863 (Southern Research Specialized Biocontainment Screening …, 2009).
Only a part is listed here, and it is no random draw. Measured potencies and affinities stand elsewhere. Calls of active or inactive are those of the source.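 The calls were made as follows: active = inhibition over 29.93%, a cutoff 3 SD above the screen mean, later confirmed by dose response; inconclusive = inhibition over 29.93% but no dose response follow-up; inactive = inhibition at most 29.93% or unconfirmed.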

assay: PhoP-dependent GFP reporter repression – Salmonella Typhimurium, primary screen (AID 1863);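 also: 0% = low Mg2+ inducing control and 100% = high Mg2+ repressing control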; conditions: S. Typhimurium PhoP-regulated promoter GFP reporter, 4 h; at 50 µM; hits give high values

Structure (SMILES) | inhibition
CN(C(=O)Cc1ccccc1)[C@@H]1CC[C@]2(CCCO2)C[C@H]1N1CCCC1 | inactive: -2.71%
O=[As](O)(O)c1cccnc1 | inactive: -1.23%
COc1cc(C(=O)NCC2(N3CCOCC3)CCCCC2)cc(Cl)c1OC(C)C | inactive: 5.56%
CS(=O)(=O)c1ccc(Cl)c(NC(=O)COC(=O)C(O)(c2ccccc2)c2ccccc2)c1 | inactive: 1.76%
O=C(OC1CN2CCC1CC2)c1ccc(Cl)cc1 (centres undefined) | inactive: -7.28%
Cc1cccc(OCC(=O)OC2CN3CCC2CC3)c1 (centres undefined) | inactive: -2.64%
O=[As](O)(c1cccc(O)c1)c1cccc(O)c1 | inactive: 0.97%
CCCOP(=S)(Nc1nc(N)cc(=O)[nH]1)OCCC | inactive: -2.5%
Nc1cccc2c([As](=O)(O)O)cccc12 | inactive: -15%
Cc1ccc(NCCc2c([N+](=O)[O-])cc([N+](=O)[O-])cc2[N+](=O)[O-])cc1 | inactive: 16.5%
COc1cc(C2NCCC3(OCCO3)C2(C)C)cc(OC)c1OC (centres undefined) | inactive: 0.2%
CCOP(=O)(Nc1cccc2ccccc12)OCC | inactive: 0.89%
O=C(OC1CN2CCC1CC2)C12CC3CC(CC(C3)C1)C2 (centres undefined) | inactive: 4.95%
Cc1cc(=O)[nH]c(N[N+](=O)[O-])n1 | inactive: -14.1%
Cc1c2c(nc3ccccc13)SC(C(Cl)Cl)C2 (centres undefined) | inactive: 2.15%
COc1ccc2nc(NP(=O)(c3ccccc3)c3ccccc3)sc2c1 | inactive: 3.27%
COc1cc(I)ccc1[As](=O)(O)O | inactive: -9.19%
COc1ccc(N/C(=N/P(=O)(N2CCOCC2)N2CCOCC2)N2CCOCC2)cc1 | inactive: 1.59%
C[As](=O)(O)c1cccc(C(=O)O)c1 | inactive: 1.04%
O=[As](O)(c1ccc(O)cc1)c1ccccc1O | inactive: 4.32%

Structure (SMILES) | inhibition
Cc1ccc2nc3c(c(C)c2c1)CC(C(Cl)Cl)S3 (centres undefined) | inactive: -3.7%
Cc1ccc(OP(=O)(Nc2ccc([N+](=O)[O-])cn2)Oc2ccc(C)cc2)cc1 | inactive: -1.19%
CC(C)c1ccc(OP(=O)(Nc2ccccn2)Oc2ccccc2F)cc1 (centres undefined) | inactive: -4.49%
ClCCSc1nnc(-c2cccnc2)o1 | inactive: 1.44%
CC(C)NC(=O)NP(=O)(Oc1ccccc1)Oc1ccccc1 | inactive: -0.14%
CCN(CC)C(=S)SC(NC=O)C(Cl)(Cl)Cl (centres undefined) | inactive: 5.04%
O=[N+]([O-])c1cc([N+](=O)[O-])c(-c2ccn[nH]2)s1 | inactive: -20.2%
CCOC(=O)Nc1ccc([As](=O)(O)O)c(O)c1 | inactive: -10.9%
Cc1cc(SC(NC(=O)c2ccccc2)C(Cl)(Cl)Cl)nc(C(C)C)n1 (centres undefined) | inactive: -0.35%
CCOC(=O)Nc1cccc([As](=O)(O)O)c1 | inactive: 12.1%
O=[N+]([O-])c1ccc(Nc2ccc(Oc3ccc([N+](=O)[O-])cc3[N+](=O)[O-])cc2)c([N+](=O)[O-])c1 | inactive: -3.83%
Cc1cc(SC(NC=O)C(Cl)(Cl)Cl)ncn1 (centres undefined) | inactive: 0.99%
O=P(Nc1ccccn1)(c1cccc2ccccc12)c1cccc2ccccc12 | inactive: -5.44%
COP1(=S)c2c(C)nn(CCC#N)c2N=C(c2ccc(F)cc2)N1C (centres undefined) | inactive: 14.1%
O=C(COc1ccccc1)OC1CN2CCC1CC2 (centres undefined) | inactive: -1.03%
O=C(Nc1ccncc1[N+](=O)[O-])c1ccc([N+](=O)[O-])cc1[N+](=O)[O-] | inactive: 3.75%
CCOC(=O)c1ccc(NC(=O)C(C)(CCl)SC)cc1 (centres undefined) | inactive: -3.91%
O=C(OC1CN2CCC1CC2)c1cccc([N+](=O)[O-])c1 (centres undefined) | inactive: 1.09%
CCC(C)N(CC(C)C)C(=S)SC(NC(C)=O)C(Cl)(Cl)Cl (centres undefined) | inactive: -8.55%
